Test results published in article PMC3724849 (PLoS ONE, 2013).

Amino acid sequences for entries named in this document (tags omitted).
UniProt Q969S8, whole entry, species assumed: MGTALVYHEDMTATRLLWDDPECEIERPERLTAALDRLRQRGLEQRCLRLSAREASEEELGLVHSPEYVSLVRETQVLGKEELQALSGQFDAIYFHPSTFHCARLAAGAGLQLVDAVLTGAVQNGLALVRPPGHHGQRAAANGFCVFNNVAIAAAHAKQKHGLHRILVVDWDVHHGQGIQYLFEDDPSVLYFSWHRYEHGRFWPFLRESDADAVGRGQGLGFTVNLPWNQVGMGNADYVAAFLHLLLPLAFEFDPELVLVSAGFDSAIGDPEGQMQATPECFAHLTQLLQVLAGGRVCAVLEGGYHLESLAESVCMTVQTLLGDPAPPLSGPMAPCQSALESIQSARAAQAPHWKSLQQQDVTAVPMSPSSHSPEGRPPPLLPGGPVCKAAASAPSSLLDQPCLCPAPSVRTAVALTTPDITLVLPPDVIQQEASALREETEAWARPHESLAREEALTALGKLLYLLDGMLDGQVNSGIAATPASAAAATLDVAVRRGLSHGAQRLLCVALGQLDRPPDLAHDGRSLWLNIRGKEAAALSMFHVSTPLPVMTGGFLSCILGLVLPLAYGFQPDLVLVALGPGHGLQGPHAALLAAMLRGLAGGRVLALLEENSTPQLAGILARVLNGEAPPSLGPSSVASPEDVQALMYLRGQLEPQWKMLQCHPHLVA

Key:
[1] = Pharmacokinetic study after single i.p. injection; conditions: 50 mg/kg i.p.; LLOQ = 0.018 µM
[2] = biological target: HDAC10 (Homo sapiens, UniProt Q969S8); test: biochemical

Compound: O=C(CCCCCCC(=O)Nc1ccccc1)NO [SAHA, Suberoylanilide hydroxamic acid]
- SAHA in the brain at time points beyond 1 hour [1]: undetectable
- IC50 [2]: 29 nM
